{"sequences": {"note": "The chains behind the UniProt entries cited, without tags or fusion partners.", "UniProt P25099, whole entry, looked up": "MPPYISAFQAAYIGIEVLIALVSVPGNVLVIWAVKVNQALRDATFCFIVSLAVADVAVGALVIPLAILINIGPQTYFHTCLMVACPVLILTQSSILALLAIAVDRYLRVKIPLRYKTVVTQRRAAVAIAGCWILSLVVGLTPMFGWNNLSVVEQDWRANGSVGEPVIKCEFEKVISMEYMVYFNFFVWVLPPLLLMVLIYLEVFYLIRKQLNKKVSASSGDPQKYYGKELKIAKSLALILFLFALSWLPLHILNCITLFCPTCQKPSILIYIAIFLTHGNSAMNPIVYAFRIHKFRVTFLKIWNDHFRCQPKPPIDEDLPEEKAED"}, "source": "patent US5453426A", "about": "“Sulfur-containing xanthine derivatives as adenosine antagonists” (priority 1994, dated 1995)", "key": {"A1 adenosine receptors": {"target": "A1 adenosine receptors (Rattus norvegicus, UniProt P25099)", "assay": "Inhibition of binding of [3H]N6-phenylisopropyladenosine to A1 adenosine receptors in rat cerebral cortical membranes", "conditions": "ratio of A2 (rat striatum) to A1 (rat cortex) Ki"}, "adenosine receptor": {"test_system": "adenosine receptor", "conditions": "background; cited from earlier work"}}}
{"smiles": "Cn1c(=O)c2[nH]cnc2n(C)c1=O", "note": "[Compound 1a, theophylline]", "values": [{"measurement": "Ki (A2)/Ki (A1)", "setting": "A1 adenosine receptors", "value": 2.99}, {"measurement": "selectivity and strength as adenosine antagonists", "setting": "adenosine receptor", "value": "non-selective and relatively weak adenosine antagonists"}]}
